Experimental data reported in PMC11266573.

Molecular target: DNMT3A1 UDR WT (human) (UniProt Q9Y6K1)
Test: BLI
Settings: none; WT Xenopus histones; BLI: 20 mM Tris-HCl pH 7.5, 50 mM NaCl, 1 mM DTT, 0.01% Tween-20, 30 C; EMSA: pH 7.5, 50 mM NaCl, 5% glycerol, 0.05% b-ME, 4 C

## unmodified NCP, biotinylated 601
  Kd: 197 nM
